pKd: −log10 of the molar value.
Target: PRMT5/MEP50 complex (Homo sapiens, UniProt O14744)
Experiment: Binding affinity to PRMT5/MEP50 (unknown origin) assessed as dissociation constant by FITC- Competitive binding assay
Type: protein-complex assay
Method in brief: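 Direct FP binding: FITC-labeled peptide at 1 nM final with PRMT5-MEP50 complex titrated as two-fold dilutions in 50 mM HEPES, 250 mM NaCl, 1 mM TCEP, 0.01% Tween 20, pH 8.0; incubated 1–2 h at room temperature; read at 485/535 nm; triplicate.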

Chains of the proteins cited; added tags and fusions are not shown.
UniProt O14744, whole entry: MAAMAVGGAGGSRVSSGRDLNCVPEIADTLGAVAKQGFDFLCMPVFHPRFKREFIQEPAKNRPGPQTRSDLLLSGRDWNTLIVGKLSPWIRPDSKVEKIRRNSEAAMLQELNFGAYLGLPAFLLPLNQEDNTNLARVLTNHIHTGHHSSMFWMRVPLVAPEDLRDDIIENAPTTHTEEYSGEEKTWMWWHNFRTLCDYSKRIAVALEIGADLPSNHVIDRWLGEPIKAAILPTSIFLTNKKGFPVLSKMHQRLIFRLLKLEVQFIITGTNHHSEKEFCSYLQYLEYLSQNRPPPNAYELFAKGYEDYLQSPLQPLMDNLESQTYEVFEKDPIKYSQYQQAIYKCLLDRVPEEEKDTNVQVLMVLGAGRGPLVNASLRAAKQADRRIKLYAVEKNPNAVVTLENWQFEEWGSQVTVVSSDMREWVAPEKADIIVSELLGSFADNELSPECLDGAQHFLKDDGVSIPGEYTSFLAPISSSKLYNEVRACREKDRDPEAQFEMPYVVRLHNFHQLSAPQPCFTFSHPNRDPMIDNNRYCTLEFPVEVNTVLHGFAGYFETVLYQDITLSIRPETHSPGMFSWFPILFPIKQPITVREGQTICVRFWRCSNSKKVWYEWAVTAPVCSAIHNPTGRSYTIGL

- pKd: 5.77
Compound: CC(=O)N[C@H](C(=O)N1CCC[C@H]1C(=O)N[C@H]1C/C=C\CC[C@@H](C(=O)N[C@@H](CC(=O)O)C(=O)N[C@@H](C)C(=O)N[C@@H](CC(=O)O)C(=O)N[C@@H](CCCCNC(=S)Nc2ccc3c(c2)C(=O)OC32c3ccc(O)cc3Oc3cc(O)ccc32)C(N)=O)NC(=O)[C@H](Cc2ccccc2)NC(=O)[C@H](CCC(N)=O)NC1=O)C(C)C (stereo in doubt)
